This note sets out measurements from patent EP1115693B9, “SUBSTITUTED POLYCYCLIC ARYL AND HETEROARYL $i([sequence])-HETEROALKYLAMINES USEFUL FOR INHIBITING CHOLESTERYL ESTER [sequence] PROTEIN ACTIVITY” (Monsanto Company, priority 1998, dated 2000).

Sequences of proteins named here, by UniProt entry; tags and fusion partners are left off. Residues count along the entry.
UniProt P11597, 18-493 limits assumed: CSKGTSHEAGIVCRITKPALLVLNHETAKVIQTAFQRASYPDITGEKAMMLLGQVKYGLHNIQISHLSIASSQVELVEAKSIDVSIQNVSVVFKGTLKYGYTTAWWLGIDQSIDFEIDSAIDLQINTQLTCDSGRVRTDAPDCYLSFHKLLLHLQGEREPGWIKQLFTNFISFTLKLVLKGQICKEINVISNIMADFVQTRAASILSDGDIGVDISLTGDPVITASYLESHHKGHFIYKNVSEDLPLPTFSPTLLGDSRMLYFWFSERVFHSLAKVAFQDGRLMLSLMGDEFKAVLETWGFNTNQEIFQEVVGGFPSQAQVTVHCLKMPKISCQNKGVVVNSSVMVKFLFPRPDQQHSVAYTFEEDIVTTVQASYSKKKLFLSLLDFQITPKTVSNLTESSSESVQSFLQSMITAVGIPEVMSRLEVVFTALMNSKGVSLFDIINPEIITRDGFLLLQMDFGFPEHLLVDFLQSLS

The target of this experiment is Human recombinant CETP (Homo sapiens, UniProt P11597). As to the kind of experiment: Assay of CETP inhibition using purified components (reconstituted buffer assay): transfer of [3H]CE from HDL to LDL. It is filed as biochemical. The settings on record: 2 hours at 37°C.

With `COc1ccc(Oc2cccc(CN(CC(O)C(F)(F)F)c3cccc(OC(F)(F)F)c3)c2)cc1` (stereo not drawn), the IC50 is 90 µM.

On to `OC(CN(Cc1cc2c(cc1Cl)OCO2)c1cccc(OC(F)(F)F)c1)C(F)(F)F` (stereo not drawn), for which the IC50 was 100 µM.

As for `OC(CN(Cc1cccc(OC(F)(F)C(F)F)c1)c1cccc(Oc2ccccn2)c1)C(F)(F)F` (stereo not drawn), the IC50 is > 100 µM.

Regarding `CC(C)Oc1cccc(CN(CC(O)COC(F)(F)C(F)F)c2cccc(Oc3ccccc3)c2)c1` (stereo not drawn), the IC50 stood at 14 µM.

`OC(CN(Cc1cccc(Oc2cccc(C(F)(F)F)c2)c1)c1cccc(OC(F)(F)F)c1)C(F)(F)F` (stereo not drawn): the IC50 was 15 µM.

`OC(CN(Cc1cccc(Br)c1)Cc1cccc(OC(F)(F)F)c1)C(F)(F)F` (single isomer, unassigned): the IC50 turned out to be 15 µM.

Usually IC50 stands for the concentration at which inhibition is half-maximal.
